Source: PMC10920384 (Heliyon, 2024)

Protein sequences, listed by entry. Tags and fused reporters are not part of them. Lines headed by an entry give the natural chain unless they say otherwise; changes in a name come on top.
UniProt P22411: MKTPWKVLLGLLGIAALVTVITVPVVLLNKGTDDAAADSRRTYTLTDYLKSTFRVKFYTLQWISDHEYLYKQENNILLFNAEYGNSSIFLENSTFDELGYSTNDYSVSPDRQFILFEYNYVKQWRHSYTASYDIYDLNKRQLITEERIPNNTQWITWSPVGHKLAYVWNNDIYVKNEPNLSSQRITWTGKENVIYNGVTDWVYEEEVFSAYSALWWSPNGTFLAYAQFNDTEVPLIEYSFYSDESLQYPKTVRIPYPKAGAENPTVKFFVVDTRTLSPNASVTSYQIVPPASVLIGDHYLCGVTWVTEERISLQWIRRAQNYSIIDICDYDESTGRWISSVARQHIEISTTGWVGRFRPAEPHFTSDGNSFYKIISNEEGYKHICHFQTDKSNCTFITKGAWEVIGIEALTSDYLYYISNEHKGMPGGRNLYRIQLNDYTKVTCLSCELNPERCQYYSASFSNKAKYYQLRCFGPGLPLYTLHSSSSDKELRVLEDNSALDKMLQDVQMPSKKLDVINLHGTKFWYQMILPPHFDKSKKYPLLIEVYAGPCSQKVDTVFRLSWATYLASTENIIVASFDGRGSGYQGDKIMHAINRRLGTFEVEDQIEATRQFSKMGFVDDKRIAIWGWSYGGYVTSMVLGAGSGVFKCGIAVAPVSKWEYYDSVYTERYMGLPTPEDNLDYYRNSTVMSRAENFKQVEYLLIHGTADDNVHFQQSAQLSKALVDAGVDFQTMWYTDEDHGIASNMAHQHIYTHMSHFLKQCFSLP

Molecular target: dipeptidyl peptidase-IV (DPP-IV) from porcine kidney (Sus scrofa, UniProt P22411)
Assay: Dipeptidyl peptidase-IV
Format: biochemical

An IC50 of 33.3 µM was found for `CC[C@H](C)[C@H](N)C(=O)N1CCC[C@H]1C(=O)N[C@H](C(=O)O)[C@@H](C)CC` [Diprotin A, diprotin A, reference compound] in this work.
